For test [1], the system named is fentanyl OIRD (integrated phrenic nerve activity, iPNA). The following applies: for reversal of fentanyl silencing of iPNA: 5 μg/kg i.v. after fentanyl 20 μg/kg i.v.
In test [2] the test system is fentanyl OIRD (breaths per minute). The test is described as follows: Fentanyl OIRD in spontaneously breathing anesthetized mice. The conditions noted are these: oxytocin 100 μg/kg i.v., fentanyl 10 μg/kg i.v.
The subject of test [3] is fentanyl OIRD (breathing, inspiratory events). Nature of the test: Fentanyl OIRD in conscious, unrestrained rats (subpleural thoracic pressure telemetry).
The test system of test [4] is integrated phrenic nerve activity (iPNA); opioid OIRD.
[5] abbreviates: co-administration fentanyl 100 μg/kg + oxytocin 150 μg/kg i.v.
Setting [6] is: freely moving rat, fentanyl 100 μg/kg i.v., oxytocin 150 μg/kg i.v. at 290 s post-fentanyl.
Setting [7] is: oxytocin 80 μg/kg i.v. pretreatment, fentanyl 20 μg/kg i.v., CIHHC rats.
The mark [8] stands for this setting: 375 pmol/side bilateral, fentanyl 20 μg/kg i.v., CIHHC rats.

For the compound `CC[C@H](C)[C@@H]1NC(=O)[C@H](Cc2ccc(OC)cc2)NC(=O)CCCSC[C@@H](C(=O)N2CCC[C@H]2C(=O)N[C@@H](CC(C)C)C(=O)NCC(N)=O)NC(=O)[C@H](CC(N)=O)NC(=O)[C@H](CCC(N)=O)NC1=O`, the “prevention of iPNA silencing by systemic fentanyl” value in test [1] (carbetocin 115 μg/kg i.v., fentanyl 20 μg/kg i.v., CIHHC rats) is listed as “similarly prevents iPNA silencing”.

Consider `NC(=O)CC[C@@H]1NC(=O)[C@H](Cc2ccccc2)NC(=O)[C@H](Cc2ccc(O)cc2)NC(=O)[C@@H](N)CSSC[C@@H](C(=O)N2CCC[C@H]2C(=O)N[C@@H](CCCN=C(N)N)C(=O)NCC(N)=O)NC(=O)[C@H](CC(N)=O)NC1=O`, for which the “reversal of fentanyl silencing of iPNA” value in test [1] is given as “does not reverse fentanyl”.

`CC[C@H](C)[C@@H]1NC(=O)[C@H](Cc2ccc(O)cc2)NC(=O)[C@@H](N)CSSC[C@@H](C(=O)N2CCC[C@H]2C(=O)N[C@@H](CC(C)C)C(=O)NCC(N)=O)NC(=O)[C@H](CC(N)=O)NC(=O)[C@H](CCC(N)=O)NC1=O` [oxytocin]: the “reversal of systemic fentanyl OIRD” value in test [2] is listed as “reverses systemic fentanyl OIRD”. Besides, in test [3] (setting [5]), the “recovery of breathing after co-administration” value is recorded as “recovered nearly to baseline cadence” and the “time for the same number of breaths that spanned 290 s post-fentanyl alone” value turned out to be 123 s. In addition, the “attenuation of OIRD by co-administration with fentanyl” value in test [3] (cocktail 100 μg/kg FENT + 150 μg/kg OXTN i.v., freely moving rat) is “largely attenuated OIRD”. Also, in test [3] (setting [6]), the “breathing frequency after oxytocin rescue” value is “recovered to exceed baseline frequency” and the “rescue of lethal fentanyl OIRD” value is reported as “rescued lethal fentanyl OIRD”. Further, the “reversal of fentanyl silencing of iPNA” value in test [1] is reported as “robustly reinitiates iPNA burst firing”. For the same compound, the “efficacy of reversal at very high dose compared to lower doses” value in test [1] (OXTN 50 μg/kg i.v.) is recorded as “reduced efficacy”. Besides, the “shape of dose-response curve for reversal of fentanyl OIRD” value in test [1] (OXTN i.v. up to 50 μg/kg, fentanyl 20 μg/kg i.v.) is listed as “bell-shaped response curve”. Moreover, in test [1] (setting [7]), the “depression of iPNA burst amplitude after fentanyl” value is 30-40% and the “prevention of fentanyl-induced iPNA burst silencing” value is reported as “prevents fentanyl (20 μg/kg, i.v.)-induced iPNA burst silencing”. Besides, the “attenuation of iPNA inhibition by systemic fentanyl” value in test [1] (oxytocin 80 μg/kg i.v. pretreatment, fentanyl 20 μg/kg i.v., normoxic rats) is on record as “attenuates iPNA inhibition”. Also, in test [4] (setting [8]), the “attenuation of iPNA inhibition by systemic fentanyl, PVN oxytocin before fentanyl” value is on record as “attenuate” and the “rescue of iPNA inhibition by systemic fentanyl, PVN oxytocin after fentanyl” value is recorded as “rescue iPNA inhibition”. In addition, the “prevention of systemic fentanyl respiratory depression by PVN oxytocin” value in test [4] (1.25 μg/side, fentanyl 20 μg/kg i.v., PVN ibotenic acid treated rats) is on record as “not prevented”. In test [4] (CIHHC rat modeling SA (FIG. 8B)), the “reversal of arrest of breathing caused by systemic fentanyl, PVN OXT” value is “rapidly and completely reverses the arrest of breathing”. Further, the “reduction of fentanyl-induced OIRD by PVN oxytocin” value in test [4] (CIHHC-treated rat (FIG. 8A)) was “effectively blunts fentanyl-induced OIRD”.

Source of the values: patent publication US20240100120A1 (priority 2019, published 2024).
